# Apparent affinities of Ab-91 variants for a coronavirus HR2 peptide

The target is the same throughout: PDVDLGDISGINAS, from the HR2 region of SARS-CoV-2 spike.

Parent: Ab-91, a human scFv built as VL, three GGGGS repeats, VH. Only the CDRs of the heavy chain vary.
VL: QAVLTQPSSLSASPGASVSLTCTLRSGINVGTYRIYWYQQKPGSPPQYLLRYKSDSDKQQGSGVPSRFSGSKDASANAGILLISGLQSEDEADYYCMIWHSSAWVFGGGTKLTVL
VH: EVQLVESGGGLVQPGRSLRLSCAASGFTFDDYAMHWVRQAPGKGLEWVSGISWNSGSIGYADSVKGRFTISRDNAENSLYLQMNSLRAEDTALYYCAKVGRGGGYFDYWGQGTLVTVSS

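The parent was found by panning a naive human phage display library on the peptide. AAYL51 was designed without a model: most single CDR substitutions and a random sample of double and triple ones. The scFvs were displayed on barcoded MATa yeast, the peptide on MATalpha yeast. Binding brings cells together so that they mate, and sequencing counts the barcode pairs among the diploids. The ratio of observed to expected reads was calibrated, replicate by replicate, on BCL2-family standards whose Kd was known from biolayer interferometry. Mating was done three times.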

Variants are written as CDR1, CDR2 and CDR3 of the heavy chain (limits as in the source). Parent: GFTFDDYAMH, GISWNSGSIGYADSVK, VGRGGGYFDY. All variants listed here change S57 of the VH, counted from its first residue. Numbers give log10(Kd / nM), so 0 is 1 nM and 3 is 1 µM. Smaller is tighter. The mean shown is taken over the replicates in which the pair was detected. "ND" marks a missing value. The strain was present, yet no cells mated with the target were sequenced in that replicate, which points to weak or no binding. The list is sorted by this average, lowest first, undetected variants last.

- GFTFDDYPMH, GISWNSGLSGYADSVK, VGRGGGYFDY = 1.71, 1.95, 2.13 (mean 1.93; controls 2 of 9)
- GFTFDDYAMH, GISWNSGYIGYADSVK, VGRGGGYFDY = 2.25, 1.89, 1.72 (mean 1.96; controls 1 of 9)
- GFTFDDYAMH, GISWNSSYIGYADSVK, VGRGGGYFDY = 2.32, 2.13, 2.26 (mean 2.24; controls 3 of 9)
- GFTFDDYAMH, GISWDSGIIGEADSVK, VGRGGGYFDY = 2.47, 2.27, 3.00 (mean 2.58; controls 1 of 9)
- GFTFDDYADH, GISWNSYQIGYADSVK, VGRGGGYFDY = 2.85, ND, ND (controls 0 of 9)
- GFTFDDYASH, GISWNSGHIGYADSVK, VGCGGGYFDY = 3.50, ND, ND (controls 0 of 9)
- GFTFDDYDMH, WISWNSGEIGYADSVK, VGRGGGYFDY = 3.61, 3.94, ND (mean 3.77; controls 2 of 9)
- GFTFDDYAMH, GISWNSGTIRYADSVK, VGRGGGYFDY = ND, 3.60, 4.15 (mean 3.88; controls 3 of 9)
- RFTFDDYAMH, GISWNSGEIGYADSVK, VQRGGGYFDY = 4.22, ND, 3.60 (mean 3.91; controls 5 of 9)
- GFTFDDYAMR, GISWNSGNIGYADSVK, VGRGGGYFDF = 4.62, ND, 3.86 (mean 4.24; controls 1 of 9)
- GFTFIDYAMM, GISWNSGIIGYADSVK, VGRGGGYFDY = 4.35, ND, 4.21 (mean 4.28; controls 2 of 9)
- GFTADDYAMH, GISWNSGKIGYADSVK, VWRGGGYFDY = 4.27, 4.65, ND (mean 4.46; controls 7 of 9)
- GFTFDDYAMH, GISWNSGFIGYADSVK, VGRGGGYFSY = 4.59, ND, ND (controls 2 of 9)
- GFTFDDFAMH, GISWNSGHIGYHDSVK, VGRGGGYFDY = ND, 4.61, ND (controls 1 of 9)
- GLTFDDYAMH, GSSWNSGGIGYADSVK, VGRGGGYFDY = 4.64, 4.54, 4.69 (mean 4.62; controls 2 of 9)
- GFTFDDYAMP, GISWNSGIIGKADSVK, VGRGGGYFDY = 4.79, 4.55, ND (mean 4.67; controls 6 of 9)
- GFTFDDYAMH, GISWNSRVIGYAQSVK, VGRGGGYFDY = 4.92, ND, ND (controls 2 of 9)
- GFTFDDYAMH, GISWNNGEIGYADSVK, VGRGLGYFDY = 5.18, ND, ND (controls 7 of 9)
- GFTFDDYAMW, GISWNSGQIGYADSVK, VGRGGGYFDY = ND, 5.45, ND (controls 4 of 9)
- GFTFDDYAMH, GISWNSGWEFYADSVK, VGRGGGYFDY = 5.48, ND, ND (controls 4 of 9)
- GFKFDDYAMH, GISWNSGPIGYADSVK, TGRGGGYFDY = 6.42, 4.63, ND (mean 5.52; controls 2 of 9)
- GFTFDDYAMH, GISWNSGMIYYADSVK, VHRGGGYFDY = 5.87, ND, ND (controls 3 of 9)
- GFTFDDYAMH, GISWNSGWIGAADSVK, VGRGGGFFDY = ND, ND, ND (controls 2 of 9)
- GFMFDDYAMH, GISWNSGEIGYADSVK, VGRGGGYFDY = ND, ND, ND (controls 0 of 9)
- GFTFDDYFMH, GISWNSGWIGYALSVK, VGRGGGYFDY = ND, ND, ND (controls 1 of 9)
- GFTFDDYAMH, GISWNSGKIWYADSVK, VGRKGGYFDY = ND, ND, ND (controls 0 of 9)
- GFTFDDYAMH, GISWNSGWIGYACSVK, VGRGGGYSDY = ND, ND, ND (controls 1 of 9)
- GQTFDDYAMH, GISWNSGMIGYADSVK, VGRGGGYSDY = ND, ND, ND (controls 0 of 9)
- TFTFDDYAMH, GISWNSGCIGYADSVK, VGRGGGEFDY = ND, ND, ND (controls 1 of 9)
- GFTFDDYAMH, GISWNTGFIGYADSVK, KGRGGGYFDY = ND, ND, ND (controls 1 of 9)
- GFTFDDYFMH, GISWNTGYIGYADSVK, VGRGGGYFDY = ND, ND, ND (controls 0 of 9)
- GFTFDDYAMH, GISCNSGPIGYADSVK, VGSGGGYFDY = ND, ND, ND (controls 0 of 9)
- GFTFDDYAMH, GIRWNSGIIGYADSVK, VGNGGGYFDY = ND, ND, ND (controls 0 of 9)
- GFTFDDYAMH, GISNNSGQIGYADSHK, VGRGGGYFDY = ND, ND, ND (controls 0 of 9)
- GFTFDDYAMH, GISCNSGFIGYADSVK, VGRGCGYFDY = ND, ND, ND (controls 4 of 9)
- GFTFDDFAMH, GISWNSGDIGYADSVK, VGRGGGYFPY = ND, ND, ND (controls 2 of 9)
- GFTFDDYAMH, GHSWNSGNIGYADSVK, VGRGGGYFDY = ND, ND, ND (controls 2 of 9)

Top 5 of the variants detected in all replicates, tightest first:

* GFTFDDYPMH, GISWNSGLSGYADSVK, VGRGGGYFDY -> 1.71, 1.95, 2.13 (mean 1.93; controls 2 of 9)
* GFTFDDYAMH, GISWNSGYIGYADSVK, VGRGGGYFDY -> 2.25, 1.89, 1.72 (mean 1.96; controls 1 of 9)
* GFTFDDYAMH, GISWNSSYIGYADSVK, VGRGGGYFDY -> 2.32, 2.13, 2.26 (mean 2.24; controls 3 of 9)
* GFTFDDYAMH, GISWDSGIIGEADSVK, VGRGGGYFDY -> 2.47, 2.27, 3.00 (mean 2.58; controls 1 of 9)
* GLTFDDYAMH, GSSWNSGGIGYADSVK, VGRGGGYFDY -> 4.64, 4.54, 4.69 (mean 4.62; controls 2 of 9)

In this assay the parent's reference entry averaged 1.86; its copy inside this library read 0.88. Empty control strains, which show no peptide, gave a signal in 21% of pairings with library AAYL51; the median was 4.54 and 95% of these signals were weaker than 3.26. No background was subtracted. For each scFv, signals with the empty controls are counted beside the result.

The measurements come from Engelhart et al. 2022 (doi:10.1038/s41597-022-01779-4) through the FLAb antibody collection.